# Source: ChEMBL document CHEMBL1152801, “14 beta-O-cinnamoylnaltrexone and related dihydrocodeinones are mu opioid receptor partial agonists with predominant antagonist activity” (J Med Chem, 2009)
# Sequences of proteins named here, by UniProt entry; tags and fusion partners are left off.
# UniProt P41143, whole entry: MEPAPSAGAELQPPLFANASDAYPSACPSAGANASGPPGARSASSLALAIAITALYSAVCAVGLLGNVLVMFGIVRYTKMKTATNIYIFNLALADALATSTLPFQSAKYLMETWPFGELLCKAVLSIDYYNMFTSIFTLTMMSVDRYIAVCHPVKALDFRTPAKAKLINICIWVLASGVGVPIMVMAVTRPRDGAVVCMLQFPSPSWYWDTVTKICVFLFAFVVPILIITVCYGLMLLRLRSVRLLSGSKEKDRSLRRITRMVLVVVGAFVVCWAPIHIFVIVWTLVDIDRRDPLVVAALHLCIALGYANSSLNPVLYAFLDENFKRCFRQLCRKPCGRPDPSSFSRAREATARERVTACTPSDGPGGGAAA
# Target: Delta-type opioid receptor (Homo sapiens, UniProt P41143)
# Assay: Displacement of [3H]DPDPE from human delta opioid receptor expressed in CHO cells
# Assay type: cell-based
structure (smiles),measurement,value
O=C1CC[C@@]2(OCCCc3ccccc3)[C@H]3Cc4ccc(O)c5c4[C@@]2(CCN3CC2CC2)[C@H]1O5,Ki,0.48 nM
